From ChEMBL document CHEMBL5113400, “Design, synthesis, and biological evaluation of trizole-based heteroaromatic derivatives as Bcr-Abl kinase inhibitors” (Eur J Med Chem, 2022)

Species on record: Homo sapiens
Assay: Selectivity ratio of IC50 for inhibition of Bcr-Abl T315I mutant (unknown origin) to IC50 for inhibition of wild type Bcr-Abl (unknown origin)

In order of falling Ratio IC50:
1. O=C(Nc1ccc(-c2cn([C@@H]3CN[C@H](C(=O)Nc4ccc(Cl)c(C(F)(F)F)c4)C3)nn2)cn1)C1CC1  520
2. Nc1n[nH]c2cc(-c3cn([C@@H]4CN[C@H](C(=O)Nc5ccc(Cl)cc5Cl)C4)nn3)ccc12  426
3. O=C(Nc1nc2ccc(-c3cn([C@@H]4CN[C@H](C(=O)Nc5ccc(Cl)cc5Cl)C4)nn3)nc2s1)C1CC1  316
4. O=C(Nc1n[nH]c2cc(-c3cn([C@@H]4CN[C@H](C(=O)Nc5ccc(Cl)cc5Cl)C4)nn3)ccc12)C1CC1  241
5. CS(=O)(=O)Nc1ccc(-c2cn([C@@H]3CN[C@H](C(=O)Nc4ccc(Cl)c(C(F)(F)F)c4)C3)nn2)cn1  226
6. CC(C)(C)OC(=O)N1C[C@@H](n2cc(-c3ccc(N)nc3)nn2)C[C@H]1C(=O)Nc1ccc(Cl)c(C(F)(F)F)c1  133
7. O=C(Nc1n[nH]c2cc(-c3cn([C@@H]4CN[C@H](C(=O)Nc5ccc(Cl)c(C(F)(F)F)c5)C4)nn3)ccc12)C1CC1  126
8. Nc1ccc(-c2cn([C@@H]3CN[C@H](C(=O)Nc4ccc(Cl)c(C(F)(F)F)c4)C3)nn2)cn1  97.4
9. CC(C)(C)C(=O)Nc1ccc(-c2cn([C@@H]3CN[C@H](C(=O)Nc4ccc(Cl)c(C(F)(F)F)c4)C3)nn2)cn1  83
10. CC(=O)Nc1nc2ccc(-c3cn([C@@H]4CN[C@H](C(=O)Nc5ccc(Cl)cc5Cl)C4)nn3)nc2s1  80.9
11. CC(C)(C)OC(=O)N1C[C@@H](n2cc(-c3ccc4nc(N)sc4n3)nn2)C[C@H]1C(=O)Nc1ccc(Cl)c(C(F)(F)F)c1  63.1
12. CC(=O)Nc1n[nH]c2cc(-c3cn([C@@H]4CN[C@H](C(=O)Nc5ccc(Br)cc5)C4)nn3)ccc12  58.7
13. O=C(Nc1nc2ccc(-c3cn([C@@H]4CN[C@H](C(=O)Nc5ccc(F)c(F)c5)C4)nn3)nc2s1)C1CC1  44.7
14. CC(=O)Nc1n[nH]c2cc(-c3cn([C@@H]4CN[C@H](C(=O)Nc5ccc(Cl)cc5Cl)C4)nn3)ccc12  43
15. CC(=O)Nc1ccc(-c2cn([C@@H]3CN[C@H](C(=O)Nc4ccc(Cl)c(C(F)(F)F)c4)C3)nn2)cn1  36.9
16. CC(C)(C)OC(=O)N1C[C@@H](n2cc(-c3ccc4c(N)n[nH]c4c3)nn2)C[C@H]1C(=O)Nc1ccc(Cl)cc1Cl  31
17. CC(C)(C)OC(=O)N1C[C@@H](n2cc(-c3ccc4nc(N)sc4n3)nn2)C[C@H]1C(=O)Nc1ccc(Cl)cc1Cl  28
18. CC(C)(C)OC(=O)N1C[C@@H](n2cc(-c3ccc4nc(N)sc4n3)nn2)C[C@H]1C(=O)Nc1ccc(F)c(F)c1  27.9
19. O=C(Nc1n[nH]c2cc(-c3cn([C@@H]4CN[C@H](C(=O)Nc5ccc(Br)cc5)C4)nn3)ccc12)C1CC1  26
20. CC(=O)Nc1nc2ccc(-c3cn([C@@H]4CN[C@H](C(=O)Nc5ccc(Br)cc5)C4)nn3)nc2s1  24.2
21. CCN(CC)C(=O)c1cncc(-c2cn([C@@H]3CN[C@H](C(=O)Nc4ccc(Cl)c(C(F)(F)F)c4)C3)nn2)c1  18.1
22. O=C(NC1CC1)c1cncc(-c2cn([C@@H]3CN[C@H](C(=O)Nc4ccc(Cl)c(C(F)(F)F)c4)C3)nn2)c1  16.3
23. C=CC(=O)Nc1ccc(-c2cn([C@@H]3CN[C@H](C(=O)Nc4ccc(Cl)c(C(F)(F)F)c4)C3)nn2)cn1  15.1
24. O=C(Nc1ccc(Cl)c(C(F)(F)F)c1)[C@@H]1C[C@H](n2cc(-c3cncc(C(=O)N4CCOCC4)c3)nn2)CN1  13.3
25. Nc1nc2ccc(-c3cn([C@@H]4CN[C@H](C(=O)Nc5ccc(Cl)cc5Cl)C4)nn3)nc2s1  12.5
26. Nc1nc2ccc(-c3cn([C@@H]4CN[C@H](C(=O)Nc5ccc(F)c(F)c5)C4)nn3)nc2s1  12.4
27. CN(C)CCNC(=O)c1cncc(-c2cn([C@@H]3CN[C@H](C(=O)Nc4ccc(Cl)c(C(F)(F)F)c4)C3)nn2)c1  11.9
28. CCN1CCN(c2cc(NC(=O)[C@@H]3C[C@H](n4cc(-c5ccc6c(N)n[nH]c6c5)nn4)CN3)ccc2Cl)CC1  9.74
29. CC(=O)Nc1nc2ccc(-c3cn([C@@H]4CN[C@H](C(=O)Nc5ccc(F)c(F)c5)C4)nn3)nc2s1  9.39
30. Nc1n[nH]c2cc(-c3cn([C@@H]4CN[C@H](C(=O)Nc5ccc(Cl)c(C(F)(F)F)c5)C4)nn3)ccc12  9.14
31. Nc1n[nH]c2cc(-c3cn([C@@H]4CN[C@H](C(=O)Nc5ccc(Br)cc5)C4)nn3)ccc12  7.11
32. CC(C)(C)OC(=O)N1C[C@@H](n2cc(-c3ccc4c(N)n[nH]c4c3)nn2)C[C@H]1C(=O)Nc1ccc(Cl)c(C(F)(F)F)c1  6.86
33. Nc1nc2ccc(-c3cn([C@@H]4CN[C@H](C(=O)Nc5ccc(Br)cc5)C4)nn3)nc2s1  6.59
34. CC(C)(C)OC(=O)N1C[C@@H](n2cc(-c3ccc4c(N)n[nH]c4c3)nn2)C[C@H]1C(=O)Nc1ccc(Br)cc1  4.74
35. O=C(Nc1nc2ccc(-c3cn([C@@H]4CN[C@H](C(=O)Nc5ccc(Cl)c(C(F)(F)F)c5)C4)nn3)nc2s1)C1CC1  4.46
36. CC(=O)Nc1n[nH]c2cc(-c3cn([C@@H]4CN[C@H](C(=O)Nc5ccc(Cl)c(C(F)(F)F)c5)C4)nn3)ccc12  4.29
37. CC(C)(C)OC(=O)N1C[C@@H](n2cc(-c3ccc4nc(N)sc4n3)nn2)C[C@H]1C(=O)Nc1ccc(Br)cc1  3.66
38. O=C(Nc1nc2ccc(-c3cn([C@@H]4CN[C@H](C(=O)Nc5ccc(Br)cc5)C4)nn3)nc2s1)C1CC1  3.21
39. CC(=O)Nc1nc2ccc(-c3cn([C@@H]4CN[C@H](C(=O)Nc5ccc(Cl)c(C(F)(F)F)c5)C4)nn3)nc2s1  2.54
40. Nc1nc2ccc(-c3cn([C@@H]4CN[C@H](C(=O)Nc5ccc(Cl)c(C(F)(F)F)c5)C4)nn3)nc2s1  1.58
